Paper PMC3692431, “Anticonvulsant Activity of B2, an Adenosine Analog, on Chemical Convulsant-Induced Seizures” (PLoS ONE, 2013)

Sequences of proteins named here, by UniProt entry; tags and fusion partners are left off. A change or cut given only in a name is not applied to a line headed by its entry.
UniProt P30543, whole entry: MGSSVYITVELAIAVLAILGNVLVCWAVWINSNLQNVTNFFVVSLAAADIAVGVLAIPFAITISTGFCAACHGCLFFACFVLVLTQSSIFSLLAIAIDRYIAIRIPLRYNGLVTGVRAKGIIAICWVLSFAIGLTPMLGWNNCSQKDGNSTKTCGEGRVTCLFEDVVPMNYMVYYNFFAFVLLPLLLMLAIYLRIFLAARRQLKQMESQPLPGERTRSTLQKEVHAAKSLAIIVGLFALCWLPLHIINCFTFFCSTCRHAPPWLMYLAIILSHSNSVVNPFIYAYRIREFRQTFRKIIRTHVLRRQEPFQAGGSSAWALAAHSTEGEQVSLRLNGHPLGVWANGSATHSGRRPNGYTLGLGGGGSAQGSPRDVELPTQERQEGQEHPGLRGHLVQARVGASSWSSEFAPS

Target: T1, A2A adenosine receptor (Rattus norvegicus, UniProt P30543)
T1 construct: from tissue; host or cells: striatum of male Wistar rats
Assay: Radioligand binding, [3H]MSX-2 displacement in rat striatal membranes
Conditions: 0.75 nM [3H]MSX-2
Procedure: Male Wistar rats were sacrificed. The cerebral cortex and striatum were then removed and homogenized in 10 volumes of ice-cold 50 mM Tris–HCl buffer (pH 7.4). The homogenates were centrifuged (48,000 ×g) at 4°C for 10 min, the supernatant decanted, and the pellet resuspended in the same volume of buffer before being centrifuged again. The final pellets were resuspended in 50 mM Tris–HCl buffer containing adenosine deaminase (1.2 U per mg of protein) to remove endogenous adenosine.
Binding affinity at adenosine A2A receptors was tested in rat striatal membranes using 0.75 nM [^3H]MSX-2 (104.8 Ci/mmol). The binding assay was carried out in Tris–HCl buffer (50 mM, pH 7.4) as previously described, [12]. Briefly, assays were performed by first incubating the mixtures on a shaking water-bath at 25°C for 30 min. Termination of the incubation was performed by rapid filtration through GF/B glass fiber filters. The radioactivity on the filter was measured using a scintillation counter. […] For saturation analysis, the KD value was set at 0.14 nM and the Bmax value was 2290 fmol/mg protein for binding of [^3H]DPCPX to the A1 adenosine receptor. Meanwhile, the KD value was set at 11.48 nM and the Bmax value was 5651 fmol/mg protein for binding of [^3H]MSX-2 to the A2A adenosine receptor. […]

Ki: 160 nM
SMILES: Nc1nc(Cl)nc2c1ncn2[C@@H]1O[C@H](CO)[C@@H](O)[C@H]1O [2-CADO, 2-chloroadenosine, reference compound]
